Measurements as given in US4336253A, “Cephalosporin antibiotics” (Eli Lilly and Company, priority 1981, dated 1982).

Test: physchem

pKa (50% methyl alcohol, first titratable group): 2.6
pKa (50% methyl alcohol, second titratable group): 9
pKa (66% dmf, first titratable group): ~2.5
pKa (66% dmf, second titratable group): 9.9
pKa (water, first titratable group): 3.09
pKa (water, second titratable group): 8.29
SMILES: O=C(NO)c1cccnc1 [N-hydroxy-3-pyridinecarboxamide]
